Results from publication PMC3124131, “Can [^125I]-Iodocyanopindolol Label β3-Adrenoceptors in Rat Urinary Bladder?” (Frontiers in Pharmacology, 2010).

Target: T1, [^125I]-ICYP binding sites in rat urinary bladder membranes (β3-adrenoceptors) (Rattus norvegicus, UniProt P26255)
T1 sequence (P26255 1-400): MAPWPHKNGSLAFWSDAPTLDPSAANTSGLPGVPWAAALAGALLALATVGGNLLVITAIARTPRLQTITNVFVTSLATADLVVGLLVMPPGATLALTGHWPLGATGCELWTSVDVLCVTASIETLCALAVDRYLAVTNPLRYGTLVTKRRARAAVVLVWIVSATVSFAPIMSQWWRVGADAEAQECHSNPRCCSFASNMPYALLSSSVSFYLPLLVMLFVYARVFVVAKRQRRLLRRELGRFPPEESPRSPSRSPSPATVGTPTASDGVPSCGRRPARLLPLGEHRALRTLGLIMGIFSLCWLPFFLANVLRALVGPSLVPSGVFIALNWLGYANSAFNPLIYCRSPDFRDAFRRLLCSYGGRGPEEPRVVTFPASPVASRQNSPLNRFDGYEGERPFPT
Test: [125I]-ICYP saturation radioligand binding in rat urinary bladder membranes
Design: Lung and bladder were rapidly removed, freed from surrounding connective tissues and rapidly frozen in liquid nitrogen; from tissue; host or cells: Wistar rat urinary bladder membranes
Conditions: non-specific binding defined by 100 μM isoprenaline
Procedure: All experiments were performed under the German legislation for the care of experimental animals. Adult Wistar rats of either gender were obtained from the breeding facility at the University of Essen Medical School. They were killed by decapitation under light ether anesthesia. Lung and bladder were rapidly removed, freed from surrounding connective tissues and rapidly frozen in liquid nitrogen. Thereafter, they were stored until use for up to 3 months at −70°C. On the day of the experiment, the tissues were thawed in ice-cold preparation buffer (50 mM Tris, 10 mM MgCl2, 0.5 mM EDTA, pH 7.5), minced with scissors and homogenized with an Ultra-Turrax (Janke & Kunkel, Staufen, Germany) for 10 s at full speed and then twice for 20 s each at 2/3 speed. The homogenates were filtered through medical gauze and then centrifuged for 20 min at 50,000 g at 4°C. […]
Radioligand binding assays were performed as previously described (Goepel et al., [1997]) with minor modifications. […] In saturation experiments 6–12 [^125I]-ICYP concentrations were used, whereas in competition experiments 21 narrowly spaced competitor concentrations were used; in every case each data point was assessed in duplicate.
Saturation binding data were analyzed by fitting rectangular hyperbolic functions to the experimental data. […]

Which Kd ([125I]-ICYP up to 1200 pM, absence of propranolol, n = 6) does the source give for `CC(C)(C)NCC(O)COc1cccc2[nH]c(C#N)c(I)c12` (centres unmarked) [[^125I]-ICYP, [^125I]-iodocyanopindolol] here?
The Kd was 0.579 ± 0.147 nM.

And the Kd (additional presence of 1 μM propranolol)?
The Kd was 0.562 ± 0.196 nM.
